{"source": "paper PMC9191634", "about": "“Molecular determinants of inhibition of the human proton channel hHv1 by the designer peptide C6 and a bivalent derivative” (Proceedings of the National Academy of Sciences of the …, 2022)", "test_in_all_cases": "other; +40 mV", "conditions_in_all_cases": "designed binder", "key": {"[1]": {"target": "hHv1-V187A (Homo sapiens)"}, "[2]": {"target": "hHv1-L188C (Homo sapiens)"}, "[3]": {"target": "hHv1-L200A (Homo sapiens)"}, "hHv1-E196C (human)": {"target": "hHv1-E196C (human) (UniProt Q96D96)"}, "[4]": {"target": "hHv1-L184C (Homo sapiens)"}, "hHv1-D185C (human)": {"target": "hHv1-D185C (human) (UniProt Q96D96)"}, "[5]": {"target": "hHv1-Q191C (Homo sapiens)"}, "[6]": {"target": "hHv1-Q194A (Homo sapiens)"}, "[7]": {"target": "hHv1-Q194C (Homo sapiens)"}, "[8]": {"target": "hHv1-E196A (Homo sapiens)"}, "[9]": {"target": "hHv1-F190C (Homo sapiens)"}, "[10]": {"target": "hHv1-L189A (Homo sapiens)"}, "[11]": {"target": "hHv1-I186C (Homo sapiens)"}, "[12]": {"target": "hHv1-I183C (Homo sapiens)"}, "hHv1-H193C (human)": {"target": "hHv1-H193C (human) (UniProt Q96D96)"}, "[13]": {"target": "hHv1-F195C (Homo sapiens)"}, "hHv1-E192C (human)": {"target": "hHv1-E192C (human) (UniProt Q96D96)"}, "[14]": {"target": "hHv1-V187A (Homo sapiens)", "remark": "listed apart in the source"}, "[15]": {"target": "hHv1-E196A (Homo sapiens)", "remark": "listed apart in the source"}, "[16]": {"target": "hHv1-Q194A (Homo sapiens)", "remark": "listed apart in the source"}}}
{"substance": "C6 peptide", "values": [{"measurement": "Ki", "setting": "[1]", "result": 3.35, "unit": "µM"}, {"measurement": "Ki", "setting": "[2]", "result": 335, "unit": "nM"}, {"measurement": "Ki", "setting": "[3]", "result": 1600, "unit": "nM"}, {"measurement": "Ki", "setting": "hHv1-E196C (human)", "result": 1820, "unit": "nM"}, {"measurement": "Ki", "setting": "[4]", "result": 682, "unit": "nM"}, {"measurement": "Ki", "setting": "hHv1-D185C (human)", "result": 7, "unit": "nM"}, {"measurement": "Ki", "setting": "[5]", "result": 338, "unit": "nM"}, {"measurement": "Ki", "setting": "[6]", "result": 240, "unit": "nM"}, {"measurement": "Ki", "setting": "[7]", "result": 183, "unit": "nM"}, {"measurement": "Ki", "setting": "[8]", "result": 1540, "unit": "nM"}, {"measurement": "Ki", "setting": "[9]", "result": 19, "unit": "nM"}, {"measurement": "Ki", "setting": "[10]", "result": 26, "unit": "nM"}, {"measurement": "Ki", "setting": "[11]", "result": 43, "unit": "nM"}, {"measurement": "Ki", "setting": "[12]", "result": 34, "unit": "nM"}, {"measurement": "Ki", "setting": "hHv1-H193C (human)", "result": 1630, "unit": "nM"}, {"measurement": "Ki", "setting": "[13]", "result": 109, "unit": "nM"}, {"measurement": "Ki", "setting": "hHv1-E192C (human)", "result": 14.1, "unit": "µM"}, {"measurement": "Ki", "setting": "[14]", "result": 3.3, "unit": "µM"}, {"measurement": "Ki", "setting": "[15]", "result": 1500, "unit": "nM"}, {"measurement": "Ki", "setting": "[16]", "result": 244, "unit": "nM"}]}
